This is an account of results in PubChem BioAssay AID485314 (National Center for Advancing Translational Sciences (NCATS), 2010).

The entries are a selection whose mix differs from that of the whole data set. Results filed as inconclusive are left out. Some salts and complexes are drawn in separate pieces, as the source files them; their charges need not balance. Active and inactive are the calls of the source. The call rests on the fitted dose curve; in most records, active means well fitted inhibition curve with a large enough effect; inconclusive means small, poorly fitted or top-dose-only effect, or another doubt; inactive means no such curve, though single readings can be large or run the other way.
On the % scale 0 is the no-effect control and ±100 the full control effect.

The experiment concerns the target DNA polymerase beta (Homo sapiens) (UniProt P06746). Description: qHTS Assay for Inhibitors of DNA Polymerase Beta. As to conditions: Pol beta primer extension/strand displacement, fluorescence kinetic; at 114 µM (top of the series). The source says:
The base excision repair system in human cells is a target for therapeutic modulation of the response to irradiation treatment and DNA-damaging drugs. A key enzyme in this system is the bi-functional DNA polymerase known as DNA polymerase Beta (Pol Beta). The following is a homogeneous kinetic assay to study the primer extension and strand-displacement reaction catalyzed by pol beta.
A stepwise description of the 1536-well assay is shown in next Table. Three microliters of reagents (buffer in column 3 and 4 as negative control and 10 nM Pol beta in columns 1, 2, and 5-48) was dispensed into 1,536-well black solid-bottomed plate. Compounds (23 nL) were transferred via Kalypsys pin tool equipped with 1536-pin array (10 nL slotted pins, V&P Scientific, San Diego, CA). The plates were incubated for 15 min at room temperature, and 1 uL substrate (50 nM final concentration) were added to start the reaction and immediately read at 0 min read on Viewlux reader. The plate were further incubated for 10 min at room temperature, and then read on Viewlux again. Throughout the screen, reagent bottle and all liquid lines were chilled and made light-tight to minimize reagent degradation. All screening operations were performed on a fully integrated robotic system (Kalypsys, San Diego, CA) containing one RX-130 and two RX-90 anthropomorphic robotic arms (Staubli, Duncan, SC). Library plates were screened starting from the lowest and proceeding to the highest concentration, and a double-dipping step of the highest concentration was required to access higher concentrations of compounds. Vehicle-only plates, with DMSO being pin-transferred to the entire column 5-48 compound area, were inserted uniformly at the beginning and the end of each library in order to monitor for and record any shifts in the background, which can be affected by reagent dispensers or loss in enzyme activity overtime. Screening data were corrected, normalized, and concentration-effect relationships were derived by using publicly-available curve fitting algorithms developed in-house (http://ncgc.nih.gov/pub/openhts). A four parameter Hill equation was fitted to the concentration-response data by minimizing the residual error between the modeled and observed responses.
With `c1ccc(CN2CCC(Nc3ccccc3)CC2)cc1`, the activity change, negative = inhibition was inactive: 2.76%.

On to `O=C(NCC1(N2CCOCC2)CCCCC1)c1ccccc1`, for which the activity change, negative = inhibition is inactive: -5.3%.

As to `CCCN1CCC(Nc2cc(OC)cc(OC)c2)CC1`, the activity change, negative = inhibition is inactive: 16.2%.

For the compound `CN(C)C1(CNC(=O)c2cccc(C#N)c2)CCCCC1`, the activity change, negative = inhibition is inactive: 8.69%.

Turning to `CCOC(=O)C(CC)C1=NC(C)(C)Cc2ccccc21.O=[N+]([O-])c1cc([N+](=O)[O-])c(O)c([N+](=O)[O-])c1` (stereo unspecified), the activity change, negative = inhibition is inactive: 1.51%.

As for `O=C(NCC1(N2CCOCC2)CCCCC1)c1ccc([N+](=O)[O-])cc1`, the activity change, negative = inhibition is inactive: 1.71%.

Regarding `CC(C)(C)OC(=O)N1CCC(N(C(=O)c2ccccc2)c2ccc(Cl)cc2)CC1`, the activity change, negative = inhibition was inactive: -16.5%.

With `O=C(NCC1(N2CCOCC2)CCCCC1)c1ccccc1[N+](=O)[O-]`, the activity change, negative = inhibition was inactive: -16.6%.

On to `N#Cc1ccc(C(=O)NCC2(N3CCCCC3)CCCCC2)cc1`, for which the activity change, negative = inhibition was inactive: 37.7%.

On to `O=C(O)c1cccc(Nc2c([N+](=O)[O-])cc([N+](=O)[O-])cc2[N+](=O)[O-])c1`, for which the activity change, negative = inhibition was inactive: 11.9%.

For the compound `N/C(=N\O)c1c(N)no[n+]1[O-]`, the activity change, negative = inhibition was inactive: 12.6%.

`CCOC(=O)N1CCC(Nc2ccc(C)cc2)CC1`: the activity change, negative = inhibition was inactive: -3.81%.

As to `COc1ccc(C(=O)NCC2(N3CCOCC3)CCCCC2)cc1OC`, the activity change, negative = inhibition is inactive: 0.365%.

With `CCCOc1ccc(C)cc1CN(CCCl)CCCl`, the activity change, negative = inhibition is inactive: 43.4%.

In the case of `CCC(CO)(C(=O)OC1CN2CCC1CC2)c1ccccc1` (stereo unspecified), the activity change, negative = inhibition is inactive: -1.2%.

As to `COc1cccc(C(=O)N(c2cc(C)cc(C)c2)C2CCN(C(=O)OC(C)(C)C)CC2)c1`, the activity change, negative = inhibition is inactive: 28.1%.

Consider `COc1cc(OC)cc(C(=O)NCC2(N3CCOCC3)CCCCC2)c1`, for which the activity change, negative = inhibition was inactive: 5.92%.

As for `COc1cc(C(=O)NCC2(N3CCOCC3)CCCCC2)cc(OC)c1OC`, the activity change, negative = inhibition is inactive: -0.103%.

`CCCOc1ccc(C(=O)NCC2(N(C)C)CCCCC2)cc1`: the activity change, negative = inhibition was inactive: -7.81%.

As for `CC(C)(C)OC(=O)N1CCC(Nc2ccccc2)CC1`, the activity change, negative = inhibition is inactive: 28.5%.

In the case of `O=C(O)C1(Nc2ccccc2)CCN(Cc2ccccc2)CC1`, the activity change, negative = inhibition is inactive: 2.03%.

On to `CCOc1ncccc1C(=O)NCC1(N2CCOCC2)CCCCC1`, for which the activity change, negative = inhibition was inactive: -0.534%.

On to `CN1CCC(Nc2ccc(F)c(Cl)c2)CC1`, for which the activity change, negative = inhibition is inactive: 8.51%.

Consider `CC(C)(C)c1ccc(C(=O)NCC2(N3CCOCC3)CCCCC2)cc1`, for which the activity change, negative = inhibition is inactive: -0.875%.

For `CN(C)c1ccc(C(=O)NCC2(N3CCCCC3)CCCCC2)cc1`, the activity change, negative = inhibition was inactive: 3.38%.

For `Cc1ccccc1C(=O)NCC1(N(C)C)CCCCC1`, the activity change, negative = inhibition was inactive: 2.41%.

Consider `CCN1CCC(Nc2cccc(F)c2)CC1`, for which the activity change, negative = inhibition is inactive: 5.59%.

`Fc1ccccc1NC1CCN(Cc2ccccc2)CC1`: the activity change, negative = inhibition is inactive: 6.01%.

In the case of `COc1cc(OC)cc(C(=O)NCC2(N3CCCCC3)CCCCC2)c1`, the activity change, negative = inhibition is inactive: 4.17%.

In the case of `CN(C)C1(CNC(=O)c2ccc(C(C)(C)C)cc2)CCCCC1`, the activity change, negative = inhibition is inactive: -1.91%.

Regarding `COc1cc(C(=O)NCC2(N(C)C)CCCCC2)ccc1OC(F)F`, the activity change, negative = inhibition is inactive: 0.523%.

`CCOC(=O)N1CCC(Nc2cccc(C)c2)CC1`: the activity change, negative = inhibition was inactive: -7.39%.

Turning to `Cc1ccc(OCC(C)C)c(CN(CCCl)CCCl)c1`, the activity change, negative = inhibition was inactive: -14%.

Regarding `O=C(NCC1(N2CCCCC2)CCCCC1)c1ccc(F)cc1`, the activity change, negative = inhibition was inactive: 43.8%.

On to `CCOC(=O)N1CCC(Nc2ccc(F)cc2)CC1`, for which the activity change, negative = inhibition was inactive: 10.9%.

Take `COc1ccc(NC2CCN(CCc3ccccc3)CC2)c(OC)c1`: the activity change, negative = inhibition is inactive: 24.7%.

Consider `COc1ccccc1C(=O)NCC1(N2CCOCC2)CCCCC1`, for which the activity change, negative = inhibition was inactive: -11.7%.

For the compound `CCOc1ccc(C)cc1CN(CCCl)CCCl`, the activity change, negative = inhibition was inactive: 33.9%.

Take `O=C(NCC1(N2CCOCC2)CCCCC1)c1ccc(Cl)cc1`: the activity change, negative = inhibition is inactive: 4.7%.

For `CCOC(=O)N1CCC(Nc2ccc(OC)cc2)CC1`, the activity change, negative = inhibition is inactive: 23.3%.

Take `O=C(OC1CN2CCC1CC2)C1c2ccccc2Oc2ccccc21` (stereo unspecified): the activity change, negative = inhibition was inactive: 6.36%.

Turning to `N#CC1(Nc2ccccc2)CCN(Cc2ccccc2)CC1`, the activity change, negative = inhibition was inactive: 2.84%.

Take `O=C(NCC1(N2CCOCC2)CCCCC1)c1cc2ccccc2o1`: the activity change, negative = inhibition was inactive: -0.864%.

As to `Cc1cc(C)cc(N(C(=O)c2ccccc2)C2CCN(C(=O)OC(C)(C)C)CC2)c1`, the activity change, negative = inhibition is inactive: 0.473%.

With `CSc1ccccc1C(=O)NCC1(N2CCCCC2)CCCCC1`, the activity change, negative = inhibition was inactive: -0.601%.

Consider `O=C(NCC1(N2CCCCC2)CCCCC1)c1ccc(=O)[nH]c1`, for which the activity change, negative = inhibition is inactive: 5.96%.

On to `COc1ccc(C(=O)NCC2(N3CCCCC3)CCCCC2)cc1`, for which the activity change, negative = inhibition was inactive: -2.57%.

Regarding `CC(C)(C)OC(=O)N1CCC(N(C(=O)c2ccccc2)c2ccc(F)cc2)CC1`, the activity change, negative = inhibition was inactive: 1.27%.

For `COc1ccc(C(=O)NCC2(N3CCCCC3)CCCCC2)c(OC)c1OC`, the activity change, negative = inhibition was inactive: 2.97%.

Regarding `CCCCOc1ccccc1C(=O)NCC1(N2CCOCC2)CCCCC1`, the activity change, negative = inhibition is inactive: 5.11%.

Turning to `CCCOc1ccc(C(=O)NCC2(N(C)C)CCCCC2)cc1OC`, the activity change, negative = inhibition is inactive: 13.7%.

In the case of `O=C(NCC1(N2CCOCC2)CCCCC1)c1ccccc1Br`, the activity change, negative = inhibition is inactive: 15.9%.

As for `COc1ccc2c(c1O)-c1c(O)c(OC)cc3c1[C@H](C2)[N+](C)(C)CC3.O=[N+]([O-])c1cc([N+](=O)[O-])c([O-])c([N+](=O)[O-])c1[O-]`, the activity change, negative = inhibition is inactive: -1%.

Consider `O=C(OC1CN2CCC1CC2)c1ccc([N+](=O)[O-])cc1` (stereo unspecified), for which the activity change, negative = inhibition is inactive: 3.69%.

Turning to `COc1cc(OC)c(C(=O)NCC2(N(C)C)CCCCC2)cc1OC`, the activity change, negative = inhibition is inactive: 17.6%.

Regarding `COc1ccc(CN(CCCl)CCCl)cc1Cl`, the activity change, negative = inhibition is inactive: -0.454%.

In the case of `CN(C)c1cccc(C(=O)NCC2(N3CCCCC3)CCCCC2)c1`, the activity change, negative = inhibition was inactive: -5.93%.

With `O=[N+]([O-])c1cc([N+](=O)[O-])c(OC2CCCCC2O)c([N+](=O)[O-])c1` (stereo unspecified), the activity change, negative = inhibition is inactive: 1.79%.

For `CC(C)c1ccc(NC2CCN(C(=O)OC(C)(C)C)CC2)cc1`, the activity change, negative = inhibition was inactive: 1.56%.

With `COc1ccc(NC2CCN(C(=O)OC(C)(C)C)CC2)cc1`, the activity change, negative = inhibition was inactive: 0.487%.

`CN1CCN(CCOC(=O)C(O)(c2ccccc2)c2ccccc2)CC1`: the activity change, negative = inhibition is inactive: 25.6%.

For `O=C(NCC1(N2CCOCC2)CCCCC1)c1cc(=O)[nH]c2ccccc12`, the activity change, negative = inhibition was inactive: 8.24%.

As for `COc1cc(C(=O)NCC2(N3CCCCC3)CCCCC2)ccc1OC(F)F`, the activity change, negative = inhibition was inactive: 91.4%.

On to `O=C(NCC1(N2CCCCC2)CCCCC1)c1cccc(C(F)(F)F)c1`, for which the activity change, negative = inhibition is inactive: 18.8%.

`CCCOc1cccc(C(=O)NCC2(N3CCOCC3)CCCCC2)c1`: the activity change, negative = inhibition was inactive: 25.2%.

Consider `O=[N+]([O-])c1cc([N+](=O)[O-])c(NCC2CCS(=O)(=O)C2)c([N+](=O)[O-])c1` (stereo unspecified), for which the activity change, negative = inhibition was inactive: -10.1%.

Turning to `O=C(NCC1(N2CCCCC2)CCCCC1)c1cccc([N+](=O)[O-])c1`, the activity change, negative = inhibition is inactive: 76.3%.

As to `CCOc1ccc(C(=O)NCC2(N3CCOCC3)CCCCC2)cc1`, the activity change, negative = inhibition is inactive: 1.66%.

`CCN1CCC(Nc2ccc(Cl)cc2)CC1`: the activity change, negative = inhibition is inactive: -0.232%.

Consider `N#CC1(Nc2ccccc2)CCN(CCc2ccccc2)CC1`, for which the activity change, negative = inhibition was inactive: -1.85%.

On to `O=C(NCC1(N2CCCCC2)CCCCC1)c1ccc(OC(F)F)cc1`, for which the activity change, negative = inhibition was inactive: 22.8%.
